The values below are quoted from earlier work in patent US8436020B2, “Processes for the preparation of piperidinic derivatives and pharmaceutic compositions containing the same” (priority 2004, dated 2013).

The chains behind the UniProt entries cited, without tags or fusion partners. Residues count along the entry.
UniProt P22303, 32-614: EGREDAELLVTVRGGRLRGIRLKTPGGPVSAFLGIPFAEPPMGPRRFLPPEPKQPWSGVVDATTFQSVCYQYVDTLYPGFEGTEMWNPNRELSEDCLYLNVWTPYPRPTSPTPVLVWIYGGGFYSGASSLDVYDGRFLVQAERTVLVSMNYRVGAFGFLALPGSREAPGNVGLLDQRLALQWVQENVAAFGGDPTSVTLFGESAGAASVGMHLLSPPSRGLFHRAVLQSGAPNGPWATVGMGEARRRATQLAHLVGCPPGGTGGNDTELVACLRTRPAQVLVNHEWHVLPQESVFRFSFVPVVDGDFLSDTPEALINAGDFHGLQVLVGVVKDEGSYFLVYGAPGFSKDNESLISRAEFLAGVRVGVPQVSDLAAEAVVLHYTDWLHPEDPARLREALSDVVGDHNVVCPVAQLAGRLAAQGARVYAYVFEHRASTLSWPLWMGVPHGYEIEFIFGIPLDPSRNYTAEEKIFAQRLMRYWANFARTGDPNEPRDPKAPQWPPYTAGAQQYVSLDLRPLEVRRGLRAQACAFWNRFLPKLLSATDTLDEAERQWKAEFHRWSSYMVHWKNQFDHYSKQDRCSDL

As a reminder, the IC50 is the concentration needed to halve the response being measured.

For this series, the target named is AChE (Homo sapiens, UniProt P22303). The settings on record: cited from earlier work.

In the case of arisugacine A, the IC50 is 1 nM.

arisugacine B: the IC50 was 25.8 nM.
